Laboratory results reported in patent US6696468B2, “(S)-4-AMINO-5-CHLORO-2-METHOXY-N-[1-[1-(2-TETRAHYDROFURYL-CARBONYL)-4-[…]]-4-[…]]BENZAMIDE, PROCESS FOR THE PREPARATION THEREOF, PHARMACEUTICAL COMPOSITION CONTAINING THE SAME, AND INTERMEDIATE THEREFOR” (priority 2002, dated 2004).

Amino acid sequences for entries named in this document (tags omitted).
UniProt P61169, whole entry: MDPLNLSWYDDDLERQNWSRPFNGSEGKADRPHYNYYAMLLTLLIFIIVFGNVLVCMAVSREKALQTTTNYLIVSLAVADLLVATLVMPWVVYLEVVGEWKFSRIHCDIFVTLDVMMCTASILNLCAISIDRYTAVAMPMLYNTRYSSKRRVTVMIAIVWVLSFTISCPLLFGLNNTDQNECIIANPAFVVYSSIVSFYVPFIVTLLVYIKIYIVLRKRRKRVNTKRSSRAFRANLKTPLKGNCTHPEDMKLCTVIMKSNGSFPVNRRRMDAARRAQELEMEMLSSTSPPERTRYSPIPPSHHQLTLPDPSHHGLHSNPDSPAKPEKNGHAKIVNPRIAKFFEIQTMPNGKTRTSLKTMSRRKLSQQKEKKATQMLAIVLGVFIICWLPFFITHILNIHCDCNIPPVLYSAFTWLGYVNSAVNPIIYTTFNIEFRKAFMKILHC

Biological target: T1, Dopamine D2 receptor (Rattus norvegicus, UniProt P61169)
T1 construct: Crude synaptosome membrane fractions from rat brain was used as a receptor membrane fraction; from tissue; host or cells: rat brain crude synaptosome membrane fraction
Experiment: Dopamine D2 receptor binding assay ([3H]spiperone)
Conditions: rat brain crude synaptosome membrane fractions
Protocol: Dopamine D2 receptor binding assay and the preparation of receptor membrane fractions therefor were carried out according to a modified method of the method of Creese, I. et al., Eur. J. Pharmacol., 46, 337 (1977) and Peroutka, S. J. and Hamik, A., Eur. J. Pharmacol., 148, 297 (1988).
Crude synaptosome membrane fractions from rat brain was used as a receptor membrane fraction, and [^3H]spiperone (D2) was used as a labeled ligand. A buffer (final volume: 1 ml) containing a receptor membrane fraction and a labelled ligand therefor was incubated for a prescribed period in the presence of a test compound in various concentrations, and the radioactive ligand binding to the receptor was separated on the filter paper using a cell harvester (manufactured by Brandel). The radioactivity on the filter was determined by a liquid scintillation counter, and the total binding of the ligand to the receptor was determined. On the other hand, the non-specific binding was determined in the presence of an excess amount of non-labeled ligand (spiperone (D2)), and the specific binding was obtained by subtracting the non-specific binding from the total binding. The concentration of the test compound causing 50% inhibition of specific binding of the labeled ligand (lC50 value) was determined by probit method.

IC50 [nM] | Structure (SMILES)
390 | COc1cc(N)c(Cl)cc1C(=O)N[C@H]1CCN(CCCOc2ccc(F)cc2)C[C@H]1OC (relative stereo) [Cisapride, cis-4-amino-5-chloro-N-[1-[3-(4-fluorophenoxy)propyl]-3-methoxy-4-piperidinyl]-2-methoxybenzamide]
480 | CCN(CC)CCNC(=O)c1cc(Cl)c(N)cc1OC [Metoclopramide, 4-amino-5-chloro-N-[2-(diethylamino)ethyl]-2-methoxybenzamide]
